Laboratory results reported in PMC6520475 (European Journal of Drug Metabolism and Pharmacokinetics, 2018).

Assay: Population pharmacokinetic
Conditions: final model; 1000 bootstrap iterations, success rate 92.1%

## CN[C@H](CC(C)C)C(=O)N[C@H]1C(=O)N[C@@H](CC(N)=O)C(=O)N[C@H]2C(=O)N[C@H]3C(=O)N[C@H](C(=O)N[C@H](C(=O)O)c4cc(O)cc(O)c4-c4cc3ccc4O)[C@H](O)c3ccc(c(Cl)c3)Oc3cc2cc(c3O[C@@H]2O[C@H](CO)[C@@H](O)[C@H](O)[C@H]2O[C@H]2C[C@](C)(N)[C@H](O)[C@H](C)O2)Oc2ccc(cc2Cl)[C@H]1O [vancomycin]
  θ2Vd, bootstrap median: 154 L
